Laboratory results reported in patent publication US10975048B2, “Composition of 1,3,4-selenadiazole containing compounds with pharmacological activity” (HANGZHOU JENNIFER BIOTECH CO., LTD, priority 2015, dated 2021).

Chains of the proteins cited; added tags and fusions are not shown. Residues count along the entry.
UniProt P00367, 54-558: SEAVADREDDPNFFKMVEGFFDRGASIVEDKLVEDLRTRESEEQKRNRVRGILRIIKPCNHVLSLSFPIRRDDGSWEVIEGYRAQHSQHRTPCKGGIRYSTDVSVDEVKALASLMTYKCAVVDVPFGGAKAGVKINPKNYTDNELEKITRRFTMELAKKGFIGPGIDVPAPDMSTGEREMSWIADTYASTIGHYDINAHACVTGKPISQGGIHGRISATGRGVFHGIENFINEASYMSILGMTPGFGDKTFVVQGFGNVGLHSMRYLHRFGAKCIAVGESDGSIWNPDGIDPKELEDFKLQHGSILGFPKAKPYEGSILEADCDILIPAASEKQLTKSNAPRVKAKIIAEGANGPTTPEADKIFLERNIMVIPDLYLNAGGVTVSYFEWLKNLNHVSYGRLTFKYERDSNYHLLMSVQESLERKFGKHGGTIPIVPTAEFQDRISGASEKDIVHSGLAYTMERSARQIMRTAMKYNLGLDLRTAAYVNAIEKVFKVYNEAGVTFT

What was measured:
[1] = target: GDH (Homo sapiens, UniProt P00367); test: GDH inhibition IC50; assay type: biochemical
[2] = tested on: A 549 lung cancer cells; test: Inhibition of A549 lung cancer cells; assay type: cell-based
Text: The molecular structure of specific compounds is described as follows: […]

With `Nc1nnc(CCSCCc2nnc(NC(=O)Cc3ccccc3)s2)s1` the IC50 [1] was over 10 µM, the “A549 Max-INH” value [2] was 50% and the IC50 ([2]; Homo sapiens, A549, read-out: A549 IC50) was 9 µM.
